Experimental findings from PubChem BioAssay AID1540 (National Center for Advancing Translational Sciences (NCATS), 2009) are described below.

Chains of the proteins cited; added tags and fusions are not shown.
UniProt P14618, whole entry, looked up: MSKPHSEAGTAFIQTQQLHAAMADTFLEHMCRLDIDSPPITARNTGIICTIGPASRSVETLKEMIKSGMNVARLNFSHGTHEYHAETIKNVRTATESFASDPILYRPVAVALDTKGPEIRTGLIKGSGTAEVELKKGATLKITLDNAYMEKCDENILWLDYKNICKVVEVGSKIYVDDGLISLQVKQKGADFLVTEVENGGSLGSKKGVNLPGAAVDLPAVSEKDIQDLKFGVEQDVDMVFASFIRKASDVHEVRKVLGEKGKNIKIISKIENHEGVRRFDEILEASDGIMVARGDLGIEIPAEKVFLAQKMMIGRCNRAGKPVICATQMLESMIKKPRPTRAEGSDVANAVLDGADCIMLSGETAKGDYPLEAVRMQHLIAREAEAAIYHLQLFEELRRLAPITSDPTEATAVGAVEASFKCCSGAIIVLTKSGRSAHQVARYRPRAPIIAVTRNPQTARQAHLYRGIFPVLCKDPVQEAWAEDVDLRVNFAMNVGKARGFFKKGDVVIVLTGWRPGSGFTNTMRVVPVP

This is a selection; strong and weak results do not stand in their true shares. Results filed as inconclusive are left out. The source made the active and inactive calls. The call rests on the fitted dose curve; in most records, active means well fitted activation curve with a large enough effect; inconclusive means small, poorly fitted or top-dose-only effect, or effect the other way; inactive means flat fitted curve, though single readings scatter.

The assay concerns the target Pyruvate kinase PKM (Homo sapiens) (UniProt P14618). Put plainly: Secondary assay for Activators of Human Pyruvate Kinase M2 isoform. The conditions noted are these: purified hPK-M2, LDH-coupled NADH fluorescence kinetic. From the text: Confirmatory assay NIH Chemical Genomics Center [NCGC] Matthew G. Vander Heiden, M.D., Ph.D. [Harvard Medical School, 77 Avenue Louis Pasteur, Boston, MA 02115] NCGC Assay Overview: Human pyruvate kinase muscle 2 (hPK-M2)enzyme was supplied as a highly purified (>95% pure) preparation from Harvard Medical School and a secondary assay was used to evaluate compounds. This assay couples the formation of pyruvate from hPK-M2 using lactate dehydrogenase (LDH) and NADH. The depletion of NADH is followed in a fluorescent-based kinetic assay that follows the formation of pyruvate to lactate, as catalyzed LDH (described by Hannaert et al., 2002)1 Pyruvate kinase substrates, PEP and ADP, were present in the assay at 0.1 mM and 4 mM respectively. In this kinetic assay initial rates were determined by following the fluorescence of NADH depletion.
NCGC Assay Protocol Summary: Three uL of substrate mix (final concentration, 50 mM Tris-Cl pH 8.0, 200 mM KCl, 15 mM MgCl2, 0.1 mM PEP, 4.0 mM ADP, and 0.2 mM NADH) was dispensed into black-solid 1536 well plates. 23 nL of compounds were delivered by a pin tool and 1 uL of enzyme mix (final concentrations, 10 nM hPK-M2 and 1 uM of LDH) was added. Plates were immediately placed in ViewLux (Perkin Elmer) and NADH fluorescence was determined at 30 second exposure intervals for between 3 and 6 minutes. […]
`Nc1cccc(S(=O)(=O)N2CCCN(S(=O)(=O)c3ccc4c(c3)OCCO4)CC2)c1`: the Potency was active: 91.9 nM.
